One data set relates to CYP2B6 mRNA. Description: CYP2B6 gene expression induction in hepatocyte cultures. The following applies: Donor 2.
Another data set deals with CYP2B6. The following applies: Donor 3.

With ursodeoxycholic acid, the “Maximum fold induction of CYP2B6 gene expression” value in the data set on CYP2B6 mRNA worked out at 12.0 fold. Moreover, the “Maximum fold induction of CYP2B6 activity” value with CYP2B6 came out at 2.75 fold.
